Publication PMC9457773 (Molecules, 2022)

Assay: Pharmacokinetic and drug–drug interaction study in rats (plasma, UPLC–MS/MS)
Details: Sprague Dawley, rat, po, 100 mg/kg, sorafenib in rat plasma, sorafenib 100 mg/kg oral co-administered with canagliflozin 10 mg/kg (IVSOR+CA), n = 6, median (range)

Compound: CNC(=O)c1cc(Oc2ccc(NC(=O)Nc3ccc(Cl)c(C(F)(F)F)c3)cc2)ccn1 [sorafenib, Sorafenib]
- Tmax: 6.5 h
